Data from US20130344139A1, “METHOD OF REDUCING CONTACT LENS INTOLERANCE WITH NON-DRYING ANTIHISTAMINES” (priority 2005, published 2013).

System: muscarinic receptors (M1-M5)
Assay: Muscarinic receptor signaling, statements for M1-M5 together
Settings: stimulation with 500 nM acetylcholine

CN1CCC(=C2c3ccccc3CC(=O)c3sccc32)CC1 [ketotifen]
inhibition of muscarinic receptor signaling (in words): inhibited muscarinic receptor signaling in a dose-dependent manner
